We go through two substances from PMC7579404, “A Novel KPC Variant KPC-55 in Klebsiella pneumoniae ST307 of Reinforced Meropenem-Hydrolyzing Activity” (Frontiers in Microbiology, 2020).

What all share (experiment): purified protein
Common to all, as to details: 50 mM morpholinepropanesulfonic acid pH 7.0, 50 mM NaCl, 100 mM sodium phosphate pH 7.0, 30°C

The subject of data set [1] is CC1(C)S[C@@H]2[C@H](NC(=O)[C@H](N)c3ccccc3)C(=O)N2[C@H]1C(=O)O. It counts as biochemical, Klebsiella pneumoniae.
Data set [2] relates to C[C@@H](O)[C@H]1C(=O)N2C(C(=O)O)=C(SCCN=CN)C[C@H]12.
Data set [3] deals with C[C@H]1[C@H](NC(=O)/C(=N\OC(C)(C)C(=O)O)c2csc(N)n2)C(=O)N1S(=O)(=O)O.

“KPC-2 (and its variant KPC-55 = KPC-2 Y264N) (Klebsiella pneumoniae)”: in data set [1], the Km was determined as 1.03 ± 0.38 µM, the kcat is 5.31 ± 2.8 s⁻¹ and the kcat/Km was 4.98e+06 ± 770000 M⁻¹ s⁻¹.

Turning to “KPC-2 (and its variant KPC-55 = KPC-2 Y264N) (Klebsiella pneumoniae; Y262N)”, in data set [2], the Michaelis-Menten constant (Km) was determined as 0.13 ± 0.002 µM, the catalytic constant (kcat) turned out to be 1.99 s⁻¹ and the specificity constant (kcat/Km) was 1.51e+07 M⁻¹ s⁻¹. Besides, in data set [3], the Km was 1.50 ± 0.31 µM, the kcat is 27.9 s⁻¹ and the specificity constant (kcat/Km) came to 1.86e+07 M⁻¹ s⁻¹.

A word on the Km: it is the substrate concentration at which the rate is half of its maximum. One may read the kcat as the number of substrate molecules converted per active site and unit of time at saturation. One may read the kcat/Km as the second-order rate constant that governs catalysis at low substrate concentration.
